Data on 47 substances can be found in patent US20160287666A1 (priority 2015, published 2016).

The chains behind the UniProt entries cited, without tags or fusion partners. Where a name states a change or a piece, a line headed by the entry shows the natural chain unless it says otherwise.
UniProt Q15858: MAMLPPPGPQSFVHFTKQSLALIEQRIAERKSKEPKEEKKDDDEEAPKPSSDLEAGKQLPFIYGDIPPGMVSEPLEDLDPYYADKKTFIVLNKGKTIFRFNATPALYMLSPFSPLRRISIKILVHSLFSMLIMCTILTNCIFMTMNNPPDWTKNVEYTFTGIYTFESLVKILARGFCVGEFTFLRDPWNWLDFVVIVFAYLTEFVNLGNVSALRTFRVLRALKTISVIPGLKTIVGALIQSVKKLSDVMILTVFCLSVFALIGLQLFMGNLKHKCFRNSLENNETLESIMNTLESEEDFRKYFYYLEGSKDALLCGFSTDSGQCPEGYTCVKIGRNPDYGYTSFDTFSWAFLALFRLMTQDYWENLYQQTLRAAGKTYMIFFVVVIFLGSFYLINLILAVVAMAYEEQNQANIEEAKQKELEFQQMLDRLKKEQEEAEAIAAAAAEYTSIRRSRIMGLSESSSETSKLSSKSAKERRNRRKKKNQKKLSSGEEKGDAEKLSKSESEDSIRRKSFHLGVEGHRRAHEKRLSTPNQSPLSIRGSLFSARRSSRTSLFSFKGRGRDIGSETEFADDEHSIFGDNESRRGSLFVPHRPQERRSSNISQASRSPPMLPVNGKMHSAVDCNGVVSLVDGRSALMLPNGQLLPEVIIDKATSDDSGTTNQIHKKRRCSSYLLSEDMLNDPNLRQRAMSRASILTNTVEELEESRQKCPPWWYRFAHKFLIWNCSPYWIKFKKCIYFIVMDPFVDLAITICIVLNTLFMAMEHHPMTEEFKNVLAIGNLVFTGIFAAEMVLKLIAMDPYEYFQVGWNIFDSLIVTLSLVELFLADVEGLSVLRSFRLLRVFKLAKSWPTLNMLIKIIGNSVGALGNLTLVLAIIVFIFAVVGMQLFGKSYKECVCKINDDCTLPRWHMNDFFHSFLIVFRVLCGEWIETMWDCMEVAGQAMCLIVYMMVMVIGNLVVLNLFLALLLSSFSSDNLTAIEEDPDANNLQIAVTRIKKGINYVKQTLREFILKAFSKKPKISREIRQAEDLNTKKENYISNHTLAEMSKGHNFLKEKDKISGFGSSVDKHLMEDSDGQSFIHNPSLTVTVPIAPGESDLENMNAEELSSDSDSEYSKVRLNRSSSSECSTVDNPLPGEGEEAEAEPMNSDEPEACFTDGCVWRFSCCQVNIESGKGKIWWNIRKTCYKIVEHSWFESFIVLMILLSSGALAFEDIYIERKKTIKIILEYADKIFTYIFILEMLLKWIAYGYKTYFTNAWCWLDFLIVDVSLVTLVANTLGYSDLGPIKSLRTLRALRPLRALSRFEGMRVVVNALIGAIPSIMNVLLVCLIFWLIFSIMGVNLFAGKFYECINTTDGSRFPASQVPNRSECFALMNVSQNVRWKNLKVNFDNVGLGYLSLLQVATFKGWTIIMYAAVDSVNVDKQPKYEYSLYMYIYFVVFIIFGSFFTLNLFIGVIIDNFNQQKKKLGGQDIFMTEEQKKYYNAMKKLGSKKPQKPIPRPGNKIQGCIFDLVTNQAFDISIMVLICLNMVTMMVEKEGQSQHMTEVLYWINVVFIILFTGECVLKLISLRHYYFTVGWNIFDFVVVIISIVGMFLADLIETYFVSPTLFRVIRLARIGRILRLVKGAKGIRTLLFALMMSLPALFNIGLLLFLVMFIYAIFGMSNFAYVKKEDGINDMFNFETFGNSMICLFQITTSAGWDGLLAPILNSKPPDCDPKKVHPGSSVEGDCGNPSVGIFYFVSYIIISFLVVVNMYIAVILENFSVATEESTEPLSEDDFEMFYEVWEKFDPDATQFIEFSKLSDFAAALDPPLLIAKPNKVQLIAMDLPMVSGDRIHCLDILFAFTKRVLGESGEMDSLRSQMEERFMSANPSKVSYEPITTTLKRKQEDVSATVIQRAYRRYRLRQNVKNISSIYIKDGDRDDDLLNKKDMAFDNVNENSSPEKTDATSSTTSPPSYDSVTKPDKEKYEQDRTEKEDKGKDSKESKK
UniProt Q9UQD0, whole entry: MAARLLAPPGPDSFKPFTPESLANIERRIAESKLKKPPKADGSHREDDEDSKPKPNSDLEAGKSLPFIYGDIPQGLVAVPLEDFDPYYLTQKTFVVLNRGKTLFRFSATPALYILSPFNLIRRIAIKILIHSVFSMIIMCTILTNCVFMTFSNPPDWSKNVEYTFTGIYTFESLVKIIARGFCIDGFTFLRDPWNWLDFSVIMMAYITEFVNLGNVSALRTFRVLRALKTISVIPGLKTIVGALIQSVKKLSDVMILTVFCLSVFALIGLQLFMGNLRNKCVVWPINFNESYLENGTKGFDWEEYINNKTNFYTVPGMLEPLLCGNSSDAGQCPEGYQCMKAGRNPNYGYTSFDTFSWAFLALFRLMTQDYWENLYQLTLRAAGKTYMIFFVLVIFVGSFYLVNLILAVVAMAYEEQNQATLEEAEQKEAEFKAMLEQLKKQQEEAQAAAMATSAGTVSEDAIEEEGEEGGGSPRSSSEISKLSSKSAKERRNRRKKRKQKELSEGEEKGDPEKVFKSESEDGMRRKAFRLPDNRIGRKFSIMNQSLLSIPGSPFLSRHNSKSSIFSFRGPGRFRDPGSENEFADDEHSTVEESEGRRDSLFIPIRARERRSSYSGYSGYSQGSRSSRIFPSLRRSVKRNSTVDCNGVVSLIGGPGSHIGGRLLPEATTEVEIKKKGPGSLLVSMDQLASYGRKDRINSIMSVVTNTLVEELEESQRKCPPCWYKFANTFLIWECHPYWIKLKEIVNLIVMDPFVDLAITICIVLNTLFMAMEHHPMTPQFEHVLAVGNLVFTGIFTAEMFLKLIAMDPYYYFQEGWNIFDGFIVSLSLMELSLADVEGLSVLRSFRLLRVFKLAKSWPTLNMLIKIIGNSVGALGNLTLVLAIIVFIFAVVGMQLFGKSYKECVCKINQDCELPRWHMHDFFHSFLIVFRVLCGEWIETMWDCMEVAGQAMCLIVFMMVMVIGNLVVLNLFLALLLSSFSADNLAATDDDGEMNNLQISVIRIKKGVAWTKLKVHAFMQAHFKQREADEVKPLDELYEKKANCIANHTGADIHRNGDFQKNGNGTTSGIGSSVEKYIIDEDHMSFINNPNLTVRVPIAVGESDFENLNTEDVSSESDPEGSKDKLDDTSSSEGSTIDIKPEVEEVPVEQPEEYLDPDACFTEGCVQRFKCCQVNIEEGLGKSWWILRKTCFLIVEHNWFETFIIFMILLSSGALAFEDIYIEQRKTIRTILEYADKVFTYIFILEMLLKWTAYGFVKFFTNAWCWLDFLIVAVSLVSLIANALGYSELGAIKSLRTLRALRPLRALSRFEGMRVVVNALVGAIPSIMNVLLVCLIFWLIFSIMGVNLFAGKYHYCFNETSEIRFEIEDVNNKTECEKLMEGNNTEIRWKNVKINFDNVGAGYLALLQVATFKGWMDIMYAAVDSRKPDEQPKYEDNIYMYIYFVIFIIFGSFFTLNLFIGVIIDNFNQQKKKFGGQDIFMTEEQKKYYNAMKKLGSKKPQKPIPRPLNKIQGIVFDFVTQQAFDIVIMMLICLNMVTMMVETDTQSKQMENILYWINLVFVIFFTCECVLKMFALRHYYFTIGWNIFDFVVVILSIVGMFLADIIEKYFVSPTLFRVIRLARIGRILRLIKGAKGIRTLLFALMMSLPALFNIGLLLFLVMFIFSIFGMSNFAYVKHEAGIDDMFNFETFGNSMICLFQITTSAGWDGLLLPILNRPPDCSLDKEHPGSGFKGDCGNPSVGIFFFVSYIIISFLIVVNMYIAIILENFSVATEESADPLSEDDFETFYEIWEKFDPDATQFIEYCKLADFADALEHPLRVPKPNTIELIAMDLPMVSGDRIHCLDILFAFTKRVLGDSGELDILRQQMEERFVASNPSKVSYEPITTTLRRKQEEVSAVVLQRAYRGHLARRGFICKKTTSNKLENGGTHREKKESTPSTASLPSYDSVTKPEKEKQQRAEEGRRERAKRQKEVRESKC

Several values for one entry are separate records, joined by “and”; a condition that tells them apart may be missing. Equal entries are not always repeated. Ends that are not written are not given here.

The target of the first assay is T1, human Nav1.7 (Homo sapiens, UniProt Q15858, W1161R). Type of assay: cell-based. The conditions noted are these: read-out: Nav1.7 IC50.
Regarding “GPQCQKWMQTCDAERKCCEGFVCRLWCKKKLW-OH (cysteine pairing not given here) [NV1D2775]”, the IC50 is 42.9 nM.
Same read-out and setting: the value for “GPSCQKWMQTCDAERKCCEGFVCRLWCKKKLW-OH (cysteine pairing not given here) [NV1D2773]” was 18.8 nM.
For “GPQCQKWMQTCDAKRKCCEGFVCRLWCKKKLW-COOH [NV1D3048]”, the IC50 is 11.1 nM.
Same read-out and setting: the value for “GPQCQKWMWTCDAERKCCEGFVCRLWCKKKLW-COOH [NV1D2740]” was 3.62 nM; that for “GPQCQSWMQTCDRERKCCEGFVCTLWCRKKLW-COOH [NV1D3352]” was 14.2 nM.
On the same count and under the same terms, the same measure for “GPSCQKWMQTCDAKRKCCEGFSCTLWCRKKLW-COOH [NV1D3535]”: 18.7 nM.
Same read-out and setting: the same measure for “GPQCQKWMWTCDAERKCCEGMVCRLWCKKKLW-COOH [NV1D2675]”: 4.33 nM; for “GPQCQKWMQTCDAERKCCEGFVCTLWCKKKLW-COOH [NV1D2973]”: 93.9 nM.
Turning to “GPYCQKWMQTCDRERKCCEGFSCTLWCRKKLW-COOH [NV1D3553]”, the IC50 was 52.4 nM.
For “GPQCQKWMQTCDRERKCCEGFVCTLWCRKKLWAPAPAPAPAPDGPWRKM-COOH [NV1D3512]”, the IC50 is 116 nM.
Same read-out and setting: the value for “GPQCQKWMQTCDRERKCCEGLVCTLWCRKKLW-COOH [NV1D3470]” was 32.5 nM; that for “GPRCQKWMQTCDRNRKCCEGFVCTLWCRKKLW-COOH [NV1D3538]” was 11.6 nM; that for “GPQCQKWMQTCKRKEKCCEGFVCTLWCRKKLW-COOH [NV1D3428]” was 180 nM.
On the same count and under the same terms, the value for “GPAPAPAQCQKWMQTCDAERKCCEGFVCRLWCKKKLW-COOH [NV1D3251]” was 56.1 nM.
Still for that read-out and setting: the value for “GPQCQKWMQTCRRRRKCCEGFVCTLWCRKKLW-COOH [NV1D3423]” was 99.5 nM; that for “GPYCQKWMQTCDARRKCCEGFSCRLWCKKKLW-COOH [NV1D3582]” was 17.8 nM.
For “GPQCQKWMQTCDRERKCCEGFVCRLWCKKKLW-COOH [NV1D3004]”, the IC50 stood at 6.23 nM.
On to “GPQCQDWMQTCDRERKCCEGFVCTLWCRKKLW-COOH [NV1D3349]”, for which the IC50 was determined as 109 nM.
Same read-out and setting: the value for “GPQCQKWMQECDRERKCCEGFVCTLWCRKKLW-COOH [NV1D3357]” was 111 nM.
Consider “GPQCKKWMQTCDRERKCCEGFVCTLWCRKKLW-COOH [NV1D3340]”, for which the IC50 was found to be 11.5 nM.
On to “GPYCQKWMQTCDRNRKCCEGFVCTLWCRKKLW-COOH [NV1D3540]”, for which the IC50 is 16 nM.
The same measure, in the same setting: the value for “GPQCQKWMQTCDANRKCCEGFVCRLWCKKKLW-COOH [NV1D3005]” was 7.83 nM.
On the same count and under the same terms, the same measure for “GPRCQKWMQTCDARRKCCEGFSCRLWCKKKLW-COOH [NV1D3580]”: 8.4 nM; for “GPRCQKWMQTCDAERKCCEGFVCTLWCKKKLW-COOH [NV1D3566]”: 23.7 nM.
“GPSCQKWMQTCDAERKCCEGFSCTLWCKKKLW-COOH [NV1D2971]”: the IC50 was 77.5 nM.
Consider “GPQCQKWMQTCDARRKCCEGFVCTLWCKKKLW-COOH [NV1D3017]”, for which the 50% inhibitory concentration (IC50) was determined as 21.9 nM.
For the substance “GPQCQKWMQTCDRTRKCCEGFVCTLWCRKKLW-COOH [NV1D3368]”, the IC50 is 33.5 nM and 17.9 nM.
For the substance “GPQCQKWMQTCDRERTCCEGFVCTLWCRKKLW-COOH [NV1D3377]”, the IC50 amounted to 36.4 nM.
The same measure, in the same setting: the value for “GPQCQKWMQSCDRERKCCEGFVCTLWCRKKLW-COOH [NV1D3359]” was 10.5 nM; that for “GPSCQKWMQTCDAKRKCCEGFVCTLWCRKKLW-COOH [NV1D3530]” was 15.6 nM; that for “GPYCQKWMQTCDAKRKCCEGFSCTLWCRKKLW-COOH [NV1D3536]” was 37 nM.
Same read-out and setting: the value for “GPYCQKWMQTCDARRKCCEGFVCTLWCKKKLW-COOH [NV1D3571]” was 21 nM; that for “GPQCQKWMQTCDAKRKCCEGFVCRLWCRKKLW-COOH [NV1D3052]” was 84.8 nM; that for “GPQCQKWMQTCDAERKCCEGFSCRLWCKKKLW-COOH [NV1D2972]” was 34.1 nM.
On to “GPQCQKWMQTCTRERKCCEGFVCTLWCRKKLW-COOH [NV1D3362]”, for which the IC50 came out at 20.1 nM.
The same measure, in the same setting: the value for “GPQCQKWMQTCSRERKCCEGFVCTLWCRKKLW-COOH [NV1D3366]” was 24.6 nM; that for “GPQCQKWMQTCDEERKCCEGFVCTLWCRKKLW-COOH [NV1D3466]” was 108 nM.
Turning to “GPQCQKWMQQCDRERKCCEGFVCTLWCRKKLW-COOH [NV1D3358]”, the IC50 is 20.5 nM.
On the same count and under the same terms, the same measure for “GPACQKWMQTCDARRKCCEGFVCTLWCKKKLW-COOH [NV1D3572]”: 19.8 nM; for “GPQCQKWMQTCDRERKCCEGFVCTLWCRKSLW-COOH [NV1D3414]”: 102 nM; for “GPRCQKWMQTCDANRKCCEGFSCTLWCKKKLW-COOH [NV1D3558]”: 26.7 nM.
Same read-out and setting: the same measure for “GPQCQKWMQTCDRERKCCQGFVCTLWCRKKLW-COOH [NV1D3388]”: 13.5 nM; for “GPSCQKWMWTCDSERKCCEGFVCRLWCKKKLW-COOH [NV1D2663]”: 4.19 nM.

The assay is the same for the next values; noted with them: read-out: hNav1.7 TETRA IC50.
For “GPQCQKWMQTCDAERKCCEGFVCRLWCKKKLW-OH (cysteine pairing not given here) [NV1D2775]”, the IC50 was 25.4 ± 2 nM.
Still for that read-out and setting: the same measure for “GPRCQKWMQTCDAERKCCEGFVCRLWCKKKLW-OH (cysteine pairing not given here) [NV1D2772]”: 15.6 ± 1.8 nM.
Still for that read-out and setting: the same measure for “GPSCQKWMQTCDAERKCCEGFVCRLWCKKKLW-OH (cysteine pairing not given here) [NV1D2773]”: 18.8 ± 1.5 nM.
Consider “GPACQKWMQTCDAERKCCEGFVCRLWCKKKLW-COOH [NV1D2774]”, for which the IC50 came to 50.5 ± 15.2 nM.
Same read-out and setting: the same measure for “GPQCQKWMQTCDRERKCCEGFVCTLWCRKKLW-COOH [NV1D3034]”: 10.3 ± 2.1 nM.
On the same count and under the same terms, the value for “GPRCQKWMQTCDAERKCCEGLVCRLWCKKKLW-COOH [NV1D2896]” was 80.3 ± 7.1 nM.

A further assay has as its target T1, human Nav1.7. Type of assay: cell-based. The conditions noted are these: read-out: hNav1.7 QPatch IC50.
With “GPQCQKWMQTCDAERKCCEGFVCRLWCKKKLW-OH (cysteine pairing not given here) [NV1D2775]”, the IC50 worked out at 4 ± 8.9 nM.
On the same count and under the same terms, the value for “GPRCQKWMQTCDAERKCCEGFVCRLWCKKKLW-OH (cysteine pairing not given here) [NV1D2772]” was 6.2 ± 3.2 nM; that for “GPSCQKWMQTCDAERKCCEGFVCRLWCKKKLW-OH (cysteine pairing not given here) [NV1D2773]” was 4.3 ± 3.3 nM.
The same measure, in the same setting: the value for “GPACQKWMQTCDAERKCCEGFVCRLWCKKKLW-COOH [NV1D2774]” was 18.7 ± 13.6 nM; that for “GPQCQKWMQTCDRERKCCEGFVCTLWCRKKLW-COOH [NV1D3034]” was 4.3 ± 4.3 nM.

A further assay has as its target human Nav1.6 (Homo sapiens, UniProt Q9UQD0). Type of assay: cell-based.
Settings: not given
In the case of “GPQCQKWMQTCDAERKCCEGFVCRLWCKKKLW-OH (cysteine pairing not given here) [NV1D2775]”, the “selectivity towards Nav1.7 compared to recombinant Protoxin-II” value is “improved selectivity”.
Turning to “GPRCQKWMQTCDAERKCCEGFVCRLWCKKKLW-OH (cysteine pairing not given here) [NV1D2772]”, the “selectivity towards Nav1.7 compared to recombinant Protoxin-II” value is “improved selectivity”.
